Results published in ChEMBL document CHEMBL1149388, “Synthesis and structure-activity relationships of 3-[(2-methyl-1,3-thiazol-4-yl)ethynyl]pyridine analogues as potent, noncompetitive metabotropic glutamate receptor subtype 5 antagonists; search for cocaine medications” (J Med Chem, 2006).

Target: Metabotropic glutamate receptor 5 (Rattus norvegicus) (UniProt P31424)
Test: Activity in agonist-induced phosphoinositide hydrolysis in CHO cells expressing mGluR5a

Compound | pIC50
Cc1nc(C#Cc2cccnc2)cs1 | 6.34
Cc1cccc(C#Cc2ccccc2)n1 | 7.41

pIC50: −log10 of the molar value.
